Data taken from patent US8178524B2, “Noribogaine in the treatment of pain and drug addiction” (Demerx, Inc., priority 1997, dated 2012).

Protein sequences, listed by entry. Tags and fused reporters are not part of them.
UniProt P33535, whole entry: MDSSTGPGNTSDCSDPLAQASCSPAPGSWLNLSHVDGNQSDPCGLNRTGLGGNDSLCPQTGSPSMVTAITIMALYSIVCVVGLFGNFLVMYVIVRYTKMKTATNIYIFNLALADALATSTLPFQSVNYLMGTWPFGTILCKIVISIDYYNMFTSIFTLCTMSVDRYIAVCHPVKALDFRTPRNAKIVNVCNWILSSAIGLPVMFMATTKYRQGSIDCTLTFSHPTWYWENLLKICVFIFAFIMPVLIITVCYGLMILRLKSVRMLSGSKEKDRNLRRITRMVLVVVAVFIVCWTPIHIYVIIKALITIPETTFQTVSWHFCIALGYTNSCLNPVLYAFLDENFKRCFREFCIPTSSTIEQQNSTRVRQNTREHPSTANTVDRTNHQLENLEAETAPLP

Target: T1, μ-opioid receptor (Rattus norvegicus, UniProt P33535)
T1 construct: from tissue; host or cells: rat (Sprague Dawley) thalamic membranes
Experiment: Stimulation of [35S]GTPγS binding to rat thalamic membranes (receptor activation of G proteins)
Assay type: biochemical, Rat (Sprague Dawley)

C[C@@H](NC(=O)[C@@H](N)Cc1ccc(O)cc1)C(=O)NCC(=O)N(C)[C@@H](Cc1ccccc1)C(=O)NCCO [DAMGO]
EC50: 7.4 nM
